# Data reported in PubChem BioAssay AID624330 (Southern Research Specialized Biocontainment Screening …, 2012).
# By UniProt entry, the sequences of proteins in these tests, tags left out.
# UniProt Q9H0H5, whole entry: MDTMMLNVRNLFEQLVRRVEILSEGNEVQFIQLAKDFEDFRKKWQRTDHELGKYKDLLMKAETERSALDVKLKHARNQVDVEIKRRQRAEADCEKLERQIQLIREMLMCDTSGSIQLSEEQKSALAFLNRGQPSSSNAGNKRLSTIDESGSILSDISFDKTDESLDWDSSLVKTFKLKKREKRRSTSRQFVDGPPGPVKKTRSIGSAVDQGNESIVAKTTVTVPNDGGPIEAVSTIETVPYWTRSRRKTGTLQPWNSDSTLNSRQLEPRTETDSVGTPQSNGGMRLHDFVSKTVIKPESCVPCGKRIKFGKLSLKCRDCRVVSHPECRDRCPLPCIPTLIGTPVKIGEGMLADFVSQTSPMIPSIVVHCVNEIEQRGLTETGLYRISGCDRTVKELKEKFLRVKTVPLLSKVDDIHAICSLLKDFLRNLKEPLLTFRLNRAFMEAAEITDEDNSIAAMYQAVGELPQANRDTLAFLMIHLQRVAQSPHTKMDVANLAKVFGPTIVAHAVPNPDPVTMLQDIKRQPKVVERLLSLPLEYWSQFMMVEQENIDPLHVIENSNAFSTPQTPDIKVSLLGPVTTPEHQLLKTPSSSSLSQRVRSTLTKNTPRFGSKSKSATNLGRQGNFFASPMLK
# This is one part of the list. Measured potencies and affinities stand elsewhere. Some results for these compounds are left out of this collection, so the calls shown say nothing about other tests. Active and inactive are the calls of the source.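 How the source made its calls: active means first-screen hits whose inhibition reached a set limit at any dose in the follow-up dose series; inconclusive means inhibition above the set first-screen limit but never retested; inactive means the rest.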
# Biological target: Rac GTPase-activating protein 1 (Homo sapiens) (UniProt Q9H0H5)
# Experiment: blockers of MgcRacGAP-driven Rac1 GTP hydrolysis – biochemical, ADP Hunter fluorescence, primary and confirmatory, confirmation (AID 624330);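 further: fluorescence reports GDP produced by GAP-driven GTP hydrolysis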
# Conditions: MgcRacGAP-stimulated Rac1 GTP hydrolysis, at 30 µM, hits give high values, GST-tagged Rac1 F28L mutant substrate
row,SMILES,inhibition
1,CN(C)c1cccc(C(=O)NCC2(N(C)C)CCCCC2)c1,inactive: 12.7%
2,O=C(OCCN1CCCC1)C(O)(c1ccccc1)c1ccccc1,inactive: -5.1%
3,COc1ccc(Br)c(C(=O)NCC2(N3CCCCC3)CCCCC2)c1,inactive: -3.45%
4,C=C(C)C#CC(O)(C(=O)OC1CCN(C)CC1)c1ccccc1 (stereo not drawn),inactive: -3.72%
5,O=C(OC1CN2CCC1CC2)C(CO)(c1ccccc1)c1ccccc1 (stereo not drawn),inactive: 8%
6,O=C(NCC1(N2CCCCC2)CCCCC1)c1cccc(Cl)c1,inactive: 3.78%
7,COc1cccc(C(=O)NCC2(N3CCCCC3)CCCCC2)c1,inactive: 0.1%
8,COc1cc(C(=O)NCC2(N(C)C)CCCCC2)c([N+](=O)[O-])cc1OC,inactive: 6.34%
9,CN(C)C1(CNC(=O)c2ccc(Br)cc2)CCCCC1,inactive: 9.13%
10,CCN1CCCC(OC(=O)C2(O)c3ccccc3C=Cc3ccccc32)C1 (stereo not drawn),inactive: 6.3%
11,Cc1cc(C(=O)NCC2(N3CCCCC3)CCCCC2)ccc1[N+](=O)[O-],inactive: 3.27%
12,O=C(NCC1(N2CCCCC2)CCCCC1)c1cccc(Br)c1,inactive: 5.4%
13,COc1ccc(C(=O)NCC2(N(C)C)CCCCC2)cc1,inactive: 6.15%
14,C=CCN1CCN(CCOC(=O)C(O)(c2ccccc2)c2ccccc2)CC1,inactive: -25.7%
15,O=C(NCC1(N2CCCCC2)CCCCC1)c1cc(F)c(F)cc1Cl,inactive: -0.2%
16,Cc1ccccc1C(=O)NCC1(N2CCCCC2)CCCCC1,inactive: 14.5%
17,CN(C)C1CCCC1OC(=O)C(O)(c1ccccc1)c1ccccc1 (stereo not drawn),inactive: 3.13%
18,Cc1ccc(C(=O)NCC2(N3CCCCC3)CCCCC2)cc1,inactive: 5.17%
19,CC(C)N1C(=O)CC2(CCN(CCOC(=O)C(O)(c3ccccc3)c3ccccc3)CC2)C1=O,inactive: 3.66%
20,CCN(CC)CC(C)C(C)OC(=O)C(O)(c1ccccc1)c1ccccc1 (stereo not drawn),inactive: 2.76%
21,COc1cc(SC)ccc1C(=O)NCC1(N(C)C)CCCCC1,inactive: 9.03%
22,CN1[C@@H]2CC[C@H]1CC(OC(=O)C(O)(c1ccccc1)c1ccccc1)C2 (stereo partly drawn),inactive: 7.83%
23,O=C(NCC1(N2CCCCC2)CCCCC1)c1cc([N+](=O)[O-])ccc1Cl,inactive: -8.29%
